Molecular target: CDK2 (Homo sapiens, UniProt P24941)
Test: CDK2 degradation in MKN1 cells (AlphaLISA)
Experimental: Degradation of CDK2 in MKN1 cells was measured using AlphaLISA technology (PerkinElmer ALSU-TCDK2-A10K). MKN1 cells were maintained in RPMI1640 medium containing 10% FBS+1× penn/strep. Cells were seeded in 96-well plates (Corning 3599) at a density of 2e4 cells per well in 80 μL of fresh complete growth medium. Cells were incubated overnight at 37° C., 5% CO2. Compounds were then added to the cell assay plates with a final top concentration of 10 μM in a 1:5 dilution series with a total of 11 doses (0.001 nM-10 μM). The final volume per well was 160 μL and the final DMSO concentration was 0.1%. Additionally, wells containing no cells and only complete growth medium were also maintained on the cell assay plates (‘no cell’ wells) and processed along with experimental wells. After 14 hour-incubation at 37° C., 5% CO2, the medium was removed and the cells were washed once with 100 μL of 1×PBS. Following removal of PBS, 40 μL of 1× Lysis Buffer containing 1× protease and phosphatase inhibitors (Roche 4693116001; Roche 4906837001) were added to each well. […] Under subdued light, the plates were analyzed on an EnVision Microplate Reader (PerkinElmer Model 2009-0030). […] The data were analyzed using Xlfit (v5.3. 1.3) and the dose-dependent CDK2 degradation data were fit using a four-parameter logistic model to calculate DC50.

CDK2 degradation 14 h: Average Dmax % (14 h incubation): A (A (>75% o))
DC50 (read-out: CDK2 degradation 14 h: Mean external-Abs DC50, 14 h incubation): < 0.1 µM
Compound: Cc1cc(S(=O)(=O)NC2CC(CN3CCN(c4ccc(C5CCC(=O)NC5=O)c(Cl)c4)CC3)C2)ccc1Nc1ncc(C(F)(F)F)c(N2CCCC(C)(O)C2)n1 (single isomer, unassigned)
